Literature values as cited in patent US9539301B2, “Melanotropin ligands for skin care” (THE ARIZONA BOARD OF REGENTS ON BEHALF OF THE UNIVERSITY OF …, priority 2011, dated 2017).

By UniProt entry, the sequences of proteins in these tests, tags left out.
UniProt P32245, whole entry: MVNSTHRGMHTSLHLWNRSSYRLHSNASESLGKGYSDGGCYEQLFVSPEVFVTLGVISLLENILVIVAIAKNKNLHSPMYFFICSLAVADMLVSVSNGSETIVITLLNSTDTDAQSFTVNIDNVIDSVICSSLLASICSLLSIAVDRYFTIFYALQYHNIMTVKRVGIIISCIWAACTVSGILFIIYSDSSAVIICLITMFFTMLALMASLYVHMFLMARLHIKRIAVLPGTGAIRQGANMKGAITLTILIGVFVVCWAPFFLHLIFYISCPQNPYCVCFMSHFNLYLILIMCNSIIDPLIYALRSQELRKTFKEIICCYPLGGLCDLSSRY

Molecular target: MC4R (Homo sapiens, UniProt P32245)
Conditions: read-out: Ki MC4R (values derived from literature); cited from earlier work

NC(=O)[C@H](Cc1c[nH]c2ccccc12)NC(=O)[C@H](CCCN=C(N)N)NC(=O)[C@@H](Cc1ccccc1)NC(=O)[C@H](Cc1cnc[nH]1)NC(=O)CCCc1ccccc1 [Compound 1, 4-phenylbutyryl-His-DPhe-Arg-Trp-NH2]
Ki: 7.3 nM
